# AlphaSeq binding of Ab-14 light chain variants to a spike HR2 peptide

Data: MIT Lincoln Laboratory AlphaSeq set, Engelhart et al. 2022, doi:10.1038/s41597-022-01779-4, as distributed in FLAb.

The target is the same throughout: PDVDLGDISGINAS, from the HR2 region of SARS-CoV-2 spike.

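The parent was found by panning a naive human phage display library on the peptide. The library (AAYL50) carries one to three amino acid substitutions per variant, with no insertions or deletions. The assay is AlphaSeq: two haploid yeast populations carry antibody and antigen on their surface. Mating (16 h, 30 °C) was followed by selection of diploids and sequencing of their barcodes. Scores were corrected for input abundance and mapped to Kd with protein pairs of known affinity run in the same pool. Mating was done three times.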

Parent scFv Ab-14: VH joined to VL by three GGGGS repeats. Changes lie in the light chain CDRs alone.
VH: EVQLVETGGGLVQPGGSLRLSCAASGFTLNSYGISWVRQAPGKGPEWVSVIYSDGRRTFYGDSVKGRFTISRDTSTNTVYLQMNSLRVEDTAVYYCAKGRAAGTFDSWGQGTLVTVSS
VL: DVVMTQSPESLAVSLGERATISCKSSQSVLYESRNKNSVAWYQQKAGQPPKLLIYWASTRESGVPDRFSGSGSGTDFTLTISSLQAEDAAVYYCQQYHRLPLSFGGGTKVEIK

Substitutions are numbered in sequence along the VL above, starting at 1 (not Kabat). The Kd shown is the geometric mean over detected replicates; a lower Kd is a better binder. "no signal" marks a missing value. The strain was present, yet no cells mated with the target were sequenced in any replicate, which points to weak or no binding. For reference, the parent read 4.4 nM as the reference entry and 48 nM as a member of this library. Nonspecific signal, from three strains lacking the peptide, appeared in 18% of pairings of library AAYL50, centred on 15 µM (5% of these signals below 970 nM); values are not corrected for it. For each scFv, signals with the empty controls are counted beside the result.

changes	apparent Kd	seen in	empty controls
S25T/Y31S/R34H	2.2 nM	3 of 3	1 of 9
L30F/E32F/N37W	580 nM	3 of 3	4 of 9
S26Y/Y31N/A40N	no signal	0 of 3	0 of 9
A57L/S58D/T59K	50 nM	3 of 3	2 of 9
S38T/A40P/S58F	no signal	0 of 3	0 of 9
S33T/Q95C/L100E	300 nM	3 of 3	1 of 9
Y31P/N35L/S62E	86 nM	3 of 3	0 of 9
S25C/S26F/Q95F	no signal	0 of 3	0 of 9
R34V/Q95T/P101C	no signal	0 of 3	1 of 9
K24S/S28V/A40V	1.3 µM	1 of 3	2 of 9
W56V/Q95K/Y97C	no signal	0 of 3	1 of 9
S58K/T59W/R60N	no signal	0 of 3	0 of 9
K24T/V39R/S58Q	4.6 mM	1 of 3	4 of 9
L30Y/R60I/L100M	610 nM	3 of 3	1 of 9
Y31S/W56G/P101A	6.9 nM	3 of 3	0 of 9
N35G/K36D/Q96D	9.5 nM	3 of 3	0 of 9
S26V/E32Q/R34H	18 nM	3 of 3	3 of 9
K24V/Q95T/S103P	no signal	0 of 3	0 of 9
S58W/E61P/L102P	no signal	0 of 3	0 of 9
S28D/E32I/K36Y	3.5 µM	1 of 3	0 of 9
S25N/S33P/L100K	15 µM	1 of 3	4 of 9
Q27W/L30A/S103K	16 nM	3 of 3	0 of 9
V29F/S33L/A57V	1.3 µM	3 of 3	3 of 9
K24V/S26A/E61T	430 nM	3 of 3	0 of 9
V29L/S33I/R34Q	420 nM	3 of 3	1 of 9
S25G/K36E/Q96P	9.6 nM	3 of 3	0 of 9
S28K/S62P	12 nM	3 of 3	2 of 9
S25G/N35K/V39M	160 nM	3 of 3	6 of 9
K36L/S62R	3.3 nM	3 of 3	7 of 9
S25F/S33H/R60W	22 µM	1 of 3	0 of 9
S33H/N35V/R60Q	no signal	0 of 3	4 of 9
R34C/E61G/S103G	540 nM	3 of 3	0 of 9
K36N/Q95T/Q96Y	no signal	0 of 3	0 of 9
R34V/E61G/Q96T	13 nM	3 of 3	2 of 9
V29M/E61N/Q95W	no signal	0 of 3	0 of 9
S33I/L100A/S103C	120 µM	2 of 3	3 of 9
S25M/E32C/A40P	17 µM	3 of 3	3 of 9
Q27Y/S28A/R60A	2.0 µM	1 of 3	0 of 9
S25R/L30S/P101G	630 nM	2 of 3	1 of 9
S33T/Q95H/R99Y	15 µM	1 of 3	1 of 9
S25D/S58D/P101C	no signal	0 of 3	3 of 9
S25A/E32C/A40G	140 µM	2 of 3	3 of 9
E32C/N35Y/A57F	no signal	0 of 3	0 of 9
V29M/A40K/R60P	4.3 µM	1 of 3	3 of 9
L30G/E61P/Q96R	2.0 µM	3 of 3	4 of 9
T59E/S62E/R99I	8.1 nM	3 of 3	0 of 9
A40H/A57D/S58F	13 µM	1 of 3	0 of 9
S38V/H98S/L102P	no signal	0 of 3	0 of 9
R34H/W56S/H98F	2.8 µM	1 of 3	1 of 9
V29F/Q95R	no signal	0 of 3	1 of 9
W56R/T59N/Q96Y	40 nM	3 of 3	2 of 9
S33T/N37V/P101W	4.4 µM	1 of 3	2 of 9
S25T/A40R/W56I	no signal	0 of 3	1 of 9
K36V/A40S	160 nM	2 of 3	0 of 9
Y31F/S62E/L102K	85 nM	3 of 3	2 of 9
L30Q/S58L	11 µM	3 of 3	6 of 9
Q27H/Y31W/K36I	16 nM	3 of 3	3 of 9
A57E/Q95C/L100D	16 µM	1 of 3	1 of 9
W56F/S58G/S62P	no signal	0 of 3	1 of 9
V29I/S103N	140 nM	3 of 3	1 of 9
S26V/K36S/V39H	1.7 mM	1 of 3	4 of 9
N37V/S38N/Q96I	no signal	0 of 3	0 of 9
A57T/R99F	320 nM	3 of 3	2 of 9
S33Y/K36C/Q96F	24 nM	3 of 3	3 of 9
S25A/L30H/W56C	13 nM	3 of 3	2 of 9
S26R/N37C/S38I	no signal	0 of 3	0 of 9
R34Q/E61I/Y97W	no signal	0 of 3	1 of 9
N37Y/V39S/H98M	150 µM	1 of 3	2 of 9
L30T/E61Y/S103L	8.8 nM	3 of 3	2 of 9
L30H/N37M/S58L	no signal	0 of 3	0 of 9
Q95L/H98V	770 nM	3 of 3	0 of 9
Q27F/S38M/A40I	330 µM	1 of 3	1 of 9
V29R/W56L/R60F	830 nM	1 of 3	1 of 9

The first 8 entries again:

changes	apparent Kd	seen in	empty controls
S25T/Y31S/R34H	2.2 nM	3 of 3	1 of 9
L30F/E32F/N37W	580 nM	3 of 3	4 of 9
S26Y/Y31N/A40N	no signal	0 of 3	0 of 9
A57L/S58D/T59K	50 nM	3 of 3	2 of 9
S38T/A40P/S58F	no signal	0 of 3	0 of 9
S33T/Q95C/L100E	300 nM	3 of 3	1 of 9
Y31P/N35L/S62E	86 nM	3 of 3	0 of 9
S25C/S26F/Q95F	no signal	0 of 3	0 of 9